# Melting point values, as collected for the OPERA models

From the experimental data distributed with OPERA 2.9.

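The OPERA project collected these measurements from public sources as training and test data for property models. The files give a single number for a compound and property, which may rest on several reports. Method, purity and exact conditions of the single measurements are not given. Where a salt, mixture or single isomer is drawn, the source does not say that exactly this form was tested. Some entries may be limits or estimates that an upstream database listed as plain numbers.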

The melting point is given in degrees Celsius. "n/a" marks a cell with nothing listed here.

structure (SMILES) | name | mp (°C)
O=C(CCl)NCC1COc2ccccc2O1 (configuration not stated) | n/a | 213
CN[C@@H]1[C@@H](O[C@H]2O[C@H](CO)[C@@H](N)[C@H](O)[C@H]2O)O[C@H]2C[C@@H](N)[C@@H](O[C@H]3[C@H](O)[C@@H](O)[C@H](N)C[C@@H]3N)O[C@@H]2[C@@H]1O | Apramycin | 189
CCN(CC)c1ccc2cc(-c3nc4cc(Cl)ccc4o3)c(=O)oc2c1 | n/a | 203.2
CCCCCCCCCCCCC1CO1 (configuration not stated) | 1,2-Epoxytetradecane | 20.75
Nc1ccc(-n2cnc3ccccc32)cc1 | 4-(1H-benzimidazol-1-yl)aniline | 105
CCCCCCCCCCCCCCCCOC(=O)C(CC)CCCC (configuration not stated) | Hexanoic acid, 2-ethyl-, hexadecyl ester | -2
O=C(CCl)NC(=O)c1ccccc1 | N-(2-Chloro-acetyl)-benzamide | 158
CCCCCCC(O)CCCCCCCCCCC(=O)[O-].CCCCCCC(O)CCCCCCCCCCC(=O)[O-].[Ba+2] (configuration not stated) | Octadecanoic acid, 12-hydroxy-, barium salt (2:1) | 197.7
CCCOc1ccc(C(=O)O)cc1OC | 3-methoxy-4-propoxybenzoic acid | 183
Cc1ccc(-c2cc(CBr)on2)cc1 | 5-(Bromomethyl)-3-(4-methylphenyl)-1,2-oxazole | 87
O=C(c1cnoc1)c1ccccc1O | (2-Hydroxyphenyl)(1,2-oxazol-4-yl)methanone | 114
CC(O)CNCCC#N (configuration not stated) | 3-[(2-Hydroxypropyl)amino]propanenitrile | 49
OCC(CO)OB(OC(CO)CO)OC(CO)CO | n/a | -0.075
CCCCCCCCCCCCCCCCCCOCCC[N+](C)(C)C.[Cl-] | Stearoxypropyltrimonium chloride | 228.8
COc1ccc2[nH]c(C(=O)O)cc2c1OC | 4,5-Dimethoxy-1H-indole-2-carboxylic acid | 222
COCCCn1c(=O)c2c(N)c3c(=O)c4ccccc4c(=O)c3c(N)c2c1=O | C.I. Disperse Blue 60 | 194
O=C(O)c1cc2ccccc2c(=O)[nH]1 | 1-oxo-1,2-dihydroisoquinoline-3-carboxylic acid | 319
CCCNC(=S)NN | Hydrazinecarbothioamide, N-propyl- | 62
CCOc1ccc(NC(=O)CC#N)cc1 | 2-cyano-N-(4-ethoxyphenyl)acetamide | 97.5
Nn1cnc2c(cnn2-c2ccccc2)c1=O | n/a | 234
CCCCCCCCC1CO1 (configuration not stated) | 1,2-Epoxydecane | -22
O=[N+]([O-])c1cc(Cl)ccc1S(=O)(=O)Cl | 4-Chloro-2-nitrophenylsulphonyl chloride | 75
CCOC(=O)C(=O)c1c(C)[nH]c2ccccc12 | Ethyl (2-methyl-1H-indol-3-yl)(oxo)acetate | 128
CCOc1c(Br)cc(C=O)cc1OC | 3-bromo-4-ethoxy-5-methoxybenzaldehyde | 85
CCOC(=O)C(=O)Cc1ccc2ccccc2n1 | Ethyl 2-oxo-3-(quinolin-2-yl)propanoate | 131
O=C1CCCc2ccccc2N1 | 1,3,4,5-tetrahydro-2H-1-benzazepin-2-one | 130
O=Cc1cn(-c2ccccc2)nc1-c1ccncc1 | 1-phenyl-3-pyridin-4-yl-1H-pyrazole-4-carbaldehyde | 154
O=[N+]([O-])c1ccc2ccc3c4ccccc4cc4ccc1c2c43 | 3-Nitrobenzo(a)pyrene | 211.5
CCCCCCC(O)CCCCCCCCCCC(=O)NCCCCCCNC(=O)CCCCCCCCCCC(O)CCCCCC (configuration not stated) | Octadecanamide, N,N'-1,6-hexanediylbis[12-hydroxy- | 135.5
Clc1ccc2ncoc2c1 | 6-Chlorobenzo[d]oxazole | 61.3
CCN(CC)S(=O)(=O)c1ccc(C)c(N)c1 | 3-amino-N,N-diethyl-4-methylbenzenesulfonamide | 110
Cc1c(C)n(-c2ccc(Cl)cc2)c2ncnc(N)c12 | n/a | 250
CC(C)NC(=O)CCCl | 3-chloro-N-isopropylpropanamide | 68
CCC(N)C(O)C(F)(F)C(F)(F)C(F)(F)F.Cl (configuration not stated) | n/a | 197.5
S=c1[nH]nc(Cc2ccccc2)o1 | 5-benzyl-1,3,4-oxadiazole-2-thiol | 125
COC(=O)C(C)(C)N=NC(C)(C)C(=O)OC | n/a | 27.4
O=c1c2ccccc2[nH]c2ccc(O)cc12 | 2-Hydroxy-10H-acridin-9-one | 320
O=C(c1cc(Cl)nc2ccccc12)N1CCOCC1 | (2-Chloroquinolin-4-yl)(morpholin-4-yl)methanone | 176
O=C(O)c1ccc(Cl)o1 | 5-chlorofuran-2-carboxylic acid | 181
COc1ccccc1C(=O)NCC(=O)O | (2-Methoxy-benzoylamino)-acetic acid | 70
O=C(O)c1cc(-c2cccs2)nc2ccccc12 | 2-Thiophen-2-yl-quinoline-4-carboxylic acid | 200
CCCCCCCC/C=C\CCCCCCCCOC(=O)C(CC(=O)[O-])S(=O)(=O)[O-].[Na+].[Na+] (stereo partly drawn) | Disodium (Z)-1-(octadec-9-enyl) 2-sulphonatosuccinate | 264
NC(=O)c1cnc(Cl)cn1 | 5-Chloropyrazinamide | 167
S=c1[nH]nc(NCc2ccccc2)s1 | 5-(Benzylamino)-1,3,4-thiadiazole-2(3H)-thione | 147
Cc1cccc(F)c1C#N | 2-Fluoro-6-methylbenzonitrile | 46
CCCCC1CCC(=O)O1 (configuration not stated) | 4-Hydroxyoctanoic acid lactone | -50.2
CC(=O)NCc1ccc(C(=O)CCl)cc1 | N-[4-(chloroacetyl)benzyl]acetamide | 140

Extract of 6 entries:

structure (SMILES)	name	mp (°C)
Nc1ccc(-n2cnc3ccccc32)cc1	4-(1H-benzimidazol-1-yl)aniline	105
COc1ccccc1C(=O)NCC(=O)O	(2-Methoxy-benzoylamino)-acetic acid	70
CCN(CC)c1ccc2cc(-c3nc4cc(Cl)ccc4o3)c(=O)oc2c1	n/a	203.2
O=C(O)c1ccc(Cl)o1	5-chlorofuran-2-carboxylic acid	181
O=C1CCCc2ccccc2N1	1,3,4,5-tetrahydro-2H-1-benzazepin-2-one	130
CC(O)CNCCC#N (configuration not stated)	3-[(2-Hydroxypropyl)amino]propanenitrile	49